Results: patent publication US11406640B2, “JAK1 pathway inhibitors for the treatment of chronic lung allograft dysfunction” (Incyte Corporation, priority 2019, dated 2022)

Target: human JAK1 (Homo sapiens, UniProt P23458)
Experiment: In vitro JAK kinase assay (Example A), JAK1
Type: biochemical
Details: 1 mM ATP
Source text: In some embodiments, the JAK1 pathway inhibitor is a compound of Table 2, or a pharmaceutically acceptable salt thereof.

- IC50: < 0.01 µM
SMILES: CN(C)Cc1cc(F)cc(OC2CCN(CC(CC#N)n3cc(-c4ncnc5[nH]ccc45)cn3)CC2)c1 (single isomer, unassigned) [Compound 14, 4-(4-{3-[(dimethylamino)methyl]-5-fluorophenoxy}piperidin-1-yl)-3-[4-(7H-pyrrolo[2,3-d]pyrimidin-4-yl)-1H-pyrazol-1-yl]butanenitrile]
